Results as given in patent publication US20020160932A1, “Uncompetitive inhibitors of helicase-primase” (priority 2000, published 2002).

Chains of the proteins cited; added tags and fusions are not shown. Lines headed by an entry give the natural chain unless they say otherwise; changes in a name come on top.
UniProt P10189: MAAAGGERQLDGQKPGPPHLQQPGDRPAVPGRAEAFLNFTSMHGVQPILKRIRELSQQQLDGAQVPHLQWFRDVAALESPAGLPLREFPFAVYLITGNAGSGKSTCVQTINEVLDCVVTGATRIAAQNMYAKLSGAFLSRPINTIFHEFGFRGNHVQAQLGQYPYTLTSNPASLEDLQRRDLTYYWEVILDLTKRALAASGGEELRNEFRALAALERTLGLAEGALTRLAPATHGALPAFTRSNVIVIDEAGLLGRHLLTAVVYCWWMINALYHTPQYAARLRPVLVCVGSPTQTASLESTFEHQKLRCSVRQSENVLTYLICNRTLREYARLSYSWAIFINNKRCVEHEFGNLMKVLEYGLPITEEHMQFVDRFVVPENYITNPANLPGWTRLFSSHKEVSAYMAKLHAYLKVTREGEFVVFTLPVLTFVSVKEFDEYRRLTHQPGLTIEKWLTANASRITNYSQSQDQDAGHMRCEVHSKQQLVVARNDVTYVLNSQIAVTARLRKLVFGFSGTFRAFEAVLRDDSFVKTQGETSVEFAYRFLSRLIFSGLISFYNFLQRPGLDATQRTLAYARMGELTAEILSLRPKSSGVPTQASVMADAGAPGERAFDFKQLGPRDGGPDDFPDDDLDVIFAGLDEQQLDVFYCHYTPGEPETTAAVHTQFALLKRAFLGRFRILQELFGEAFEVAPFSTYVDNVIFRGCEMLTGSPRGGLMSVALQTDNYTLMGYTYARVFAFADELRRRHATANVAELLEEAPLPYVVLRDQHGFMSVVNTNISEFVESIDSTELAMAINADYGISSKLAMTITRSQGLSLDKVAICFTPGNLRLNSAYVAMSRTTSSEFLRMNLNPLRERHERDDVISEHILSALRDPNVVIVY
UniProt P10236: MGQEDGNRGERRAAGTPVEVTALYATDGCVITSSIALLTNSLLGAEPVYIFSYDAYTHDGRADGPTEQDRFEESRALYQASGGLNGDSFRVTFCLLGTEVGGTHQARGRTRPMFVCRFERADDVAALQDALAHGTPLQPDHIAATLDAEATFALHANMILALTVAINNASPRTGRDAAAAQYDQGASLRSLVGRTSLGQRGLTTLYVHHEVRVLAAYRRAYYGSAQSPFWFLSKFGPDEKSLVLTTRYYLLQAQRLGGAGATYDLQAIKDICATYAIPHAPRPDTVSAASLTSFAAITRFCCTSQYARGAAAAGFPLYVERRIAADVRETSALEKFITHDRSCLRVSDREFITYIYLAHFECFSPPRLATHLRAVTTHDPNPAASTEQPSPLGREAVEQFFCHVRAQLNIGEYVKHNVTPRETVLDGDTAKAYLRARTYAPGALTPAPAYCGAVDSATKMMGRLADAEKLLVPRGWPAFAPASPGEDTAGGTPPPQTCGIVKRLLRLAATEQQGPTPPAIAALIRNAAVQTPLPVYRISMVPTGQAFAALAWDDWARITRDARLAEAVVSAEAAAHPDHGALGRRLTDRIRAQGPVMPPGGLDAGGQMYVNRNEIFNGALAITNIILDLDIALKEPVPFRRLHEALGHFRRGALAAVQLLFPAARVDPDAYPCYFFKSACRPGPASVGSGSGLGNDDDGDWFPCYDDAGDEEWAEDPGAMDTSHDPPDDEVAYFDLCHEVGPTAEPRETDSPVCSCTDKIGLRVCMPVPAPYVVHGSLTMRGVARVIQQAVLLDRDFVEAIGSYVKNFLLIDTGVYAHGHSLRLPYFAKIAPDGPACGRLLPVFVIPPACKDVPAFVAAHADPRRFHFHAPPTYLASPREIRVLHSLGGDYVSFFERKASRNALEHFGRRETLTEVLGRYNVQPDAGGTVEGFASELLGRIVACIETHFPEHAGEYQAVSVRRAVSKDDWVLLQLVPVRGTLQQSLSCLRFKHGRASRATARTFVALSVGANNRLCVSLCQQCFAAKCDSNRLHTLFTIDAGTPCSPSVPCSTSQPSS

Target: HSV-1 helicase-primase heterodimer enzyme complex (UL5-UL52-6xHis) (Human herpesvirus 1, UniProt P10189+P10236)
Assay: HSV-1 DNA-dependent ATPase assay
Conditions: saturated DNA, varying ATP and inhibitor concentrations

Cc1nc(N(C)C(=O)Cc2ccc(-c3cc(F)ccc3F)cc2)sc1S(N)(=O)=O [Example 6]
inhibition of the ATPase activity, dependence on dose and ATP: dose-dependent and is moreover influenced by the ATP concentration
